Results: article PMC9151520 (Archives of Toxicology, 2022)
Values joined by “and” are separate entries in the source; they are usually repeats but may differ in a detail not shown here. Identical values can stand only once. Like-named read-outs stand apart in the source and are kept apart here.

Tests used:
[1] = in vitro; details: male, Sprague Dawley, rat, microsomes, pH 7.4
[2] = tested on: p53 signaling (p53RE-bla HCT-116 cells)
[3] = tested on: p53 signaling (p53RE-bla HCT-116 cells); remark: listed apart in the source
[4] = tested on: p53 signaling (p53RE-bla HCT-116 cells); remark: listed apart in the source
[5] = tested on: p53RE-bla HCT-116 cells

SMILES: CCOP(=S)(OCC)Oc1cc(C)nc(N(CC)CC)n1 [Pirimiphos-ethyl]
- half-life [1]: 1.09 ± 0.08 min

SMILES: Cl.Nc1c2ccccc2nc2ccccc12.O
- p53 activation Efficacy, No MS [2]: 414.606% and 313.511%
- EC50 ([2]; read-out: p53 activation EC50, No MS): 7.66 µM and 6.41 µM
- p53 activation EC50, RLM [3]: inactive
- EC50 ([3]; read-out: p53 activation EC50, RLM): 11.6 µM
- p53 activation EC50, HLM [4]: inactive
- EC50 ([4]; read-out: p53 activation EC50, HLM): 16.6 µM
- Viability EC50, HLM [5]: inactive
- Viability EC50, No MS [5]: inactive
- Viability EC50, RLM [5]: inactive
- Viability Efficacy, HLM [5]: inactive
- Viability Efficacy, No MS [5]: inactive
- Viability Efficacy, RLM [5]: inactive

SMILES: CCOP(=S)(OCC)Oc1nc(Cl)n(C(C)C)n1 [Isazofos]
- half-life [1]: 2.12 ± 0.14 min

SMILES: CCOP(=S)(OCC)Oc1cc(Cl)c(Br)cc1Cl [Bromophos-ethyl]
- half-life [1]: > 120 min

SMILES: CCOP(=S)(OCC)Oc1ccc([S+](C)[O-])cc1 (centres unmarked) [Fensulfothion]
- half-life [1]: 13.2 ± 1.25 min

SMILES: COP(=S)(OC)SCn1nnc2ccccc2c1=O [Azinphos-methyl]
- half-life [1]: 1.32 ± 0.64 min
